Earlier results in patent US20210230300A1, “INHIBITORS OF SHP2” (Bayer Aktiengesellschaft, priority 2018, published 2021).

Amino acid sequences for entries named in this document (tags omitted).
UniProt Q06124, whole entry: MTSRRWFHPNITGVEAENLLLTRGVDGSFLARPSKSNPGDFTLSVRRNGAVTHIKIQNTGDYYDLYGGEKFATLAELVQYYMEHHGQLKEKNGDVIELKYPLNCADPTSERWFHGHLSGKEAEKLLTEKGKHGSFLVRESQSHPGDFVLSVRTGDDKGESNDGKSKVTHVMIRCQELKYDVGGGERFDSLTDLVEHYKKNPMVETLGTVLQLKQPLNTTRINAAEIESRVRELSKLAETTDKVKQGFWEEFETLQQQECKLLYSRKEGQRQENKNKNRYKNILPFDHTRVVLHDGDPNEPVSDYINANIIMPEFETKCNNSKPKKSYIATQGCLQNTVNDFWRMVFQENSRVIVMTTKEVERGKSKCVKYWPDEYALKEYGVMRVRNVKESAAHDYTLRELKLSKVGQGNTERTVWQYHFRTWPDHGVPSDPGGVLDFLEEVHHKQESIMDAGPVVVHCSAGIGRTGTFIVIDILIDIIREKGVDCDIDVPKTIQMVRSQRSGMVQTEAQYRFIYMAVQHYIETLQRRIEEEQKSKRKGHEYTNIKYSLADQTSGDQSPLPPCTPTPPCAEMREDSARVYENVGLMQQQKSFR

Tests used:
[1] = test system: 20 other PTPs; conditions: cited from earlier work
[2] = target: SHP2 (Homo sapiens, UniProt Q06124); conditions: anchors to the SHP2 active site; cited from earlier work

Cn1c(-c2cccc(NC(=O)C(=O)Nc3ccc(-c4ccsc4)cc3)c2)c(I)c2cc(C(=O)O)c(O)cc21
selectivity against any of 20 other PTPs [1]: > 5 fold
IC50 [2]: 200 nM
